# Results: US12059499B2, “Liposome loading” (PLUMB PHARMACEUTICALS, INC., priority 2015, dated 2024)
# Test: Liposome leakage, sedimentation method
# Format: physicochemical
# Conditions: 0.5 M pyridinium sulfate liposomes
# Description: Liposome Leakage, Sedimentation Method. Liposome samples were diluted to 3-5 mL and left on an orbital shaker at 22° C. At specific time points, the liposomes were sedimented in a centrifuge at 300×g for 5 minutes and an aliquot of the clear supernatant was analyzed spectrophotometrically for drug and loading base content. After measurement, the solution was returned to the liposome suspension, which was vortexed and returned to the orbital shaker.
# Then, 400 microliters of a pyridinium salt solution (prewarmed to 58° C.) were added to the lipid suspension. The mixture was kept at 58° C. for 5 minutes and then 100 microliters of the pyridinium salt solution were added. The mixture was cooled and diluted with 0.99% w/v sodium chloride. […] A total of three washes were performed. Naltrexone solution was then added in 150 mM citrate (pH 7.0) and the mixture was left to load for 48 hours. After loading, residual non-loaded naltrexone and released pyridine were removed by dilution with saline and sedimentation a total of three times. Naltrexone and pyridine content were measured spectroscopically. The samples were subsequently monitored for release of naltrexone using the sedimentation method. Two trials were performed for each condition.
structure (smiles),measurement,setting,value
"CN1CC[C@]23c4c5ccc(O)c4O[C@H]2C(=O)CC[C@H]3[C@H]1C5 [hydromorphone, reference compound]",leakage profile,preparation containing the least drug (6 μmol),initial burst of leakage
same,steady release rate (as low as),preparations other than 6 μmol,≥ 0.1 % per day
